Measurements: patent US20050164945A1, “Endotheliase-1 ligands” (priority 2003, published 2005)
Where two headings read alike, the source gives them in different places.

Sequences of proteins named here, by UniProt entry; tags and fusion partners are left off. A change or cut given only in a name is not applied to a line headed by its entry. Residues count along the entry.
UniProt P00747, 97-580 partner limits assumed, species assumed: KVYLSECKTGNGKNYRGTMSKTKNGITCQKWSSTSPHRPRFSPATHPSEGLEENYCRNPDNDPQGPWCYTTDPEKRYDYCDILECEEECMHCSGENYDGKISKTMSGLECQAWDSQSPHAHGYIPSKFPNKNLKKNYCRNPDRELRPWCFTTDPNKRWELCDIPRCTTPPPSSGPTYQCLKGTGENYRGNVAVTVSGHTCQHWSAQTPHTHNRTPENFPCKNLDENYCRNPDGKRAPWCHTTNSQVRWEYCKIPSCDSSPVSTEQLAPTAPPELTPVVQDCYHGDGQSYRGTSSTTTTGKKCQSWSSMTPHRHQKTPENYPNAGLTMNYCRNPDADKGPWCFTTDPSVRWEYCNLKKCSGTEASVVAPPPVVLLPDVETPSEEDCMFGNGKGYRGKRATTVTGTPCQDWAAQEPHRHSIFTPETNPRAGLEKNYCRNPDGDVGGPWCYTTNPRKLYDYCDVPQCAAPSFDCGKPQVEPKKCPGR
UniProt P00747, 581-810 limits assumed, species assumed: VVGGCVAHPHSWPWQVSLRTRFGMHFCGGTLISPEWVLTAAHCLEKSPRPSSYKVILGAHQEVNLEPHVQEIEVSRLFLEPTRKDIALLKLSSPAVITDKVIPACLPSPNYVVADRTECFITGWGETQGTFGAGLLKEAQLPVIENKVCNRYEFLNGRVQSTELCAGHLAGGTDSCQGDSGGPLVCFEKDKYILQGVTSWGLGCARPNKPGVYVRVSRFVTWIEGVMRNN
UniProt P35030: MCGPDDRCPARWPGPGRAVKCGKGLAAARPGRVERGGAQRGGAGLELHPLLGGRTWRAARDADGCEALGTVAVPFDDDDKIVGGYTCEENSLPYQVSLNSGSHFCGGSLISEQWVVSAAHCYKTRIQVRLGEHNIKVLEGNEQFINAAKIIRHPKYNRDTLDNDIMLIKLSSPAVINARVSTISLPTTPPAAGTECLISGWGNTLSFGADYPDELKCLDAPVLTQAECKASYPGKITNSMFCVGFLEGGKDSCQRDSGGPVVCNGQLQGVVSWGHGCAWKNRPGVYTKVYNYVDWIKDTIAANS
UniProt P00742, 41-179 partner limits assumed: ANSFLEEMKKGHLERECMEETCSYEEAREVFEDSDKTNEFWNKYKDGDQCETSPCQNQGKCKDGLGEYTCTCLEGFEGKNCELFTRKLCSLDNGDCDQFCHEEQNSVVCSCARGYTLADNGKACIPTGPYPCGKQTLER
UniProt P00742, 235-488 limits assumed: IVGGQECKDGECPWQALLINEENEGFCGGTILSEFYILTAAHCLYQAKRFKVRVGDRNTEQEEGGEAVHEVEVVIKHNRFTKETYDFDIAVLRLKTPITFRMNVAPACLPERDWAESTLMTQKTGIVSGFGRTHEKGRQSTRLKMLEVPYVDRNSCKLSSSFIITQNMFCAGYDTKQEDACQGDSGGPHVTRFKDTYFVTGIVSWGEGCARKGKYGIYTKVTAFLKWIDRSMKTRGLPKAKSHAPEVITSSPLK
UniProt Q9Y5Y6, whole entry, species assumed: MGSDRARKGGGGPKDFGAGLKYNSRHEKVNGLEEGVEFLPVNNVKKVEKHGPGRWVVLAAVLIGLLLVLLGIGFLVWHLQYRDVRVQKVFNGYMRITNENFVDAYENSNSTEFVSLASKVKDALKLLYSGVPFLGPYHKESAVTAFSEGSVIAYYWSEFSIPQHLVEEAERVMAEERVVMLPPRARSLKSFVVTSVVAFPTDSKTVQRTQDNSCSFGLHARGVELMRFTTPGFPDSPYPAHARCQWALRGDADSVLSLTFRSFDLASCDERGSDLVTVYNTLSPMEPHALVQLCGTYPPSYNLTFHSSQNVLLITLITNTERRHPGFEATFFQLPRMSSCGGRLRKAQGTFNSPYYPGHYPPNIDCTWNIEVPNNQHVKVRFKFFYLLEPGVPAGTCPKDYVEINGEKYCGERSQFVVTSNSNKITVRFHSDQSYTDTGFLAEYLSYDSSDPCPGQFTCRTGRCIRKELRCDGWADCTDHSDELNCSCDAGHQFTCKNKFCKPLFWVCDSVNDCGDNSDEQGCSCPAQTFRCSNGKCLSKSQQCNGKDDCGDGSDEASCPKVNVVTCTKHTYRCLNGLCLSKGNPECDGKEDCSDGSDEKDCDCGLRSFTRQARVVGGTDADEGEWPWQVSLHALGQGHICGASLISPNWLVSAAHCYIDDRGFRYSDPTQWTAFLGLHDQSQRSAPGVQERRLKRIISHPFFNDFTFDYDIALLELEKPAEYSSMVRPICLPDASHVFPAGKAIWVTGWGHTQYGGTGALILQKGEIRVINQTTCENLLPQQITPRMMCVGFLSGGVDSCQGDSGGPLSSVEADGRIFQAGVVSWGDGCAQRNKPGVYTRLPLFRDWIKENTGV

Legend:
ET1 [1] = biological target: T1, ET1 (Homo sapiens, UniProt Q9UL52); assay: Inhibition of ET1 by synthetic peptides (IC50, apparent Ki); type: biochemical; set-up: made in house; host or cells: Pichia; conditions: for IC50: crude IC50s of synthetic peptides
T1 sequence (Q9UL52 2-423 limits assumed): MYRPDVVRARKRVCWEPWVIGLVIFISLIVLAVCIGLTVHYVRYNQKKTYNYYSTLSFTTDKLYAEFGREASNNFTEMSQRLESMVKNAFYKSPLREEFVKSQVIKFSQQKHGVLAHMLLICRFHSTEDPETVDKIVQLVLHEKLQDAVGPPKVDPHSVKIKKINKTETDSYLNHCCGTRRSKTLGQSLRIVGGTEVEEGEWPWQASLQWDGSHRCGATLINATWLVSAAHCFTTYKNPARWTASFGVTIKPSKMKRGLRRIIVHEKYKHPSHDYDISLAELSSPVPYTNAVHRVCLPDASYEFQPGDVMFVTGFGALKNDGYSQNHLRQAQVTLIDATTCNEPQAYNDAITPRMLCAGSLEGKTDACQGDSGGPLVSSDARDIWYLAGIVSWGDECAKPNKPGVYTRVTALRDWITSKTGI

Plasmin = Plasmin (Homo sapiens, UniProt P00747); conditions: read-out: Plasmin estimated IC50, 30 minute preincubation with 100 nM Kunitz domain
Procedure: (§1) Cloning into this vector placed a His-tag at the C-terminus of the protein that was used to facilitate purification.
(§2) For protein production, E. coli containing the expression vector were grown in media containing ampicillin and 2% glucose to an OD600 of 0.5. At this time the cells were spun down and the media removed. The cell pellet was then resuspended in fresh media containing ampicillin and 1 mM IPTG to induce expression of the protein. The cells were allowed to grow with shaking overnight at 30° C. before harvesting by centrifugation. Periplasmic extracts were then prepared and the MBP-Kunitz fusion purified using immobilized metal ion chromatography.

ET1 [2] = biological target: T1, ET1
Procedure: as §1, §2

TnIV = TnIV (Homo sapiens, UniProt P35030); conditions: read-out: TnIV estimated IC50, 30 minute preincubation with 100 nM Kunitz domain
Procedure: as §1, §2

fXa = fXa (Homo sapiens, UniProt P00742); conditions: read-out: fXa estimated IC50, 30 minute preincubation with 100 nM Kunitz domain
Procedure: as §1, §2

MTSP-1 = MTSP-1 (Homo sapiens, UniProt Q9Y5Y6); conditions: read-out: MTSP-1 estimated IC50, 30 minute preincubation with 100 nM Kunitz domain
Procedure: as §1, §2

[3] = Table 2, motif 1 peptides, read-out: Ki
[4] = apparent Ki, uncorrected for substrate binding, second generation peptides, read-out: Ki^App against ET1
[5] = read-out: T^0 IC50, ET1, 0 minute preincubation
[6] = read-out: T^30 IC50, ET1, 30 minute preincubation
[7] = Table 3, motif 2 peptides, read-out: Ki

## AGAHTCESRDIPCTVKGT [SEQ ID NO:208]
ET1 [1]; [3]
  Ki: 100 to 1000 nM

## AGRASWRCKGYYPDCGYPGT [DX-1640]
ET1 [1]; [4]
  Ki: 29 nM

## AGQLGWKCKGYYPDCGYPGT [DX-1643]
ET1 [1]; [4]
  Ki: 25.6 nM

## AGKMRCLSRDIPCSIHQKGTY [DX-1633]
ET1 [1]; [4]
  Ki: 26.4 nM

## AGVQHCESRDLPCLIKGT [DX-1051]
ET1 [1]; [3]
  Ki: 100 to 1000 nM
ET1 [1]
  IC50: 770 nM

## MAAEMHSFCAFKADTGTCRAAMVRFFFNIFTRQCEEFTYGGCEGNQNRFESLEECKKMCTRDSASSASGDFD [MBP-1H8]
Plasmin
  IC50: ~60 nM
ET1 [2]; [5]
  IC50: > 400 nM
ET1 [2]; [6]
  IC50: 15 nM

## AGRSRVRCISRDIPCVTHGTY [DX-1629]
ET1 [1]; [4]
  Ki: 145 nM

## MAAEMHSFCAFKADKGECRASVQRFFFNIFTRQCEEFNYGGCGGNQNRFESLEECKKMCTRDSASSASGDFD [MBP-D12]
TnIV
  IC50: ≥ 1000 nM
Plasmin
  IC50: ~500 nM
fXa
  IC50: ≥ 1000 nM
ET1 [2]; [5]
  IC50: 54.3 nM
ET1 [2]; [6]
  IC50: 1.2 nM

## AGKMRCISRDIPCTTRVAGTY [DX-1636]
ET1 [1]; [4]
  Ki: 11.3 nM

## MAAEMHSFCAFKADKGFCRAMDIRFFFNIFTRQCEEFIYGGCGGNQNRFESLEECKKMCTRDSASSASGDFD [MBP-1B2]
TnIV
  IC50: ≥ 1000 nM
Plasmin
  IC50: ~500 nM
ET1 [2]; [5]
  IC50: 21 nM
ET1 [2]; [6]
  IC50: 1.3 nM

## AGTMSCDGSMVPCYTPGT [DX-1076]
ET1 [1]
  IC50: > 10000 nM

## AQGDNIGVWLWAPYSKGFAWQLGG [DX-1043]
ET1 [1]
  IC50: > 10000 nM

## AQGMQDEGGAIRHKGAWYWMMAGG [DX-1046]
ET1 [1]
  IC50: > 10000 nM

## MAAEMHSFCAFKADKGTCRGDFPRFFFNIFTRQCEEFHYGGCGGNQNRFESLEECKKMCTRDSASSASGDFD [MBP-1E9]
TnIV
  IC50: ≥ 1000 nM
Plasmin
  IC50: ≥ 1000 nM
ET1 [2]; [5]
  IC50: 66 nM
ET1 [2]; [6]
  IC50: 2.1 nM

## AGKMRCISRDIPCTVFQEGT [DX-1635]
ET1 [1]; [4]
  Ki: 8.5 nM

## AGKMRCLSRDIPCVNFRLGT [DX-1634]
ET1 [1]; [4]
  Ki: 19.3 nM

## AGKMRCISRDIPCSHYQIGT [DX-1637]
ET1 [1]; [4]
  Ki: 8.5 nM

## AGKHICRGYYPDCIWQFAGT [DX-1648]
ET1 [1]; [4]
  Ki: 19.8 nM

## AQNREHSSKFGTVRYSTLGPPPGG [DX-1045]
ET1 [1]
  IC50: > 10000 nM

## AGTEFCWLHKGICKTWGT [DX-1075]
ET1 [1]
  IC50: > 10000 nM

## AGNWYCKGLYPDCMHKGT [DX-1132]
ET1 [1]
  IC50: 110 nM

## GSNHICPSMGCKFSAP [DX-1081]
ET1 [1]
  IC50: > 10000 nM

## GDNLFCGHSKYAQDHRCRLYDP [DX-1079]
ET1 [1]
  IC50: > 10000 nM

## MAAEMHSFCAFKADRGPCRAYFDRFFFNIFTRQGEEFIYGGCMGNQNRFESLEECKKMCTRDSASSASGDFD [MBP-1G8]
TnIV
  IC50: ~10 nM
Plasmin
  IC50: ~80 nM
fXa
  IC50: ≥ 1000 nM
ET1 [2]; [5]
  IC50: 109 nM
ET1 [2]; [6]
  IC50: 2.1 nM

## AGKHICRGYYPDCEWQIFGT [DX-1650]
ET1 [1]; [4]
  Ki: 33.6 nM

## AGWPTCRGFWPDCGMMGT [DX-1135]
ET1 [1]; [7]
  Ki: 100 to 1000 nM
ET1 [1]
  IC50: 47 nM

## AGKHICRGYYPDCVWQTWGT [DX-1646]
ET1 [1]; [4]
  Ki: 8.6 nM

## MAAEMHSFCAFKADPGPCRAMFNRFFFNIFTRQCEEFNYGGCSGNQNRFESLEECKKMCTRDSASSASGDFD [MBP-1E6]
TnIV
  IC50: ~100 nM
Plasmin
  IC50: ~30 nM
MTSP-1
  IC50: ~500 nM
ET1 [2]; [6]
  IC50: 4.9 nM

## AGKHICRGYYPDCVWQTFGT [DX-1647]
ET1 [1]; [4]
  Ki: 12.7 nM

## AGMARVKCISRDIPCVTHGTY [DX-1631]
ET1 [1]; [4]
  Ki: 13.1 nM

## MAAEMHSFCAFKADQGPCRAAISRFFFNIFTRQCEEFVYGGCEGNQNRFESLEECKKMCTRDSASSASGDFD [MBP-1D9]
TnIV
  IC50: ≥ 1000 nM
Plasmin
  IC50: ~60 nM
ET1 [2]; [5]
  IC50: 164 nM
ET1 [2]; [6]
  IC50: 7.1 nM

## GSNGHCDNHCQMNAP [DX-1044]
ET1 [1]
  IC50: > 10000 nM

## AGPDPCRMQGPWCTPMGT [DX-1074]
ET1 [1]
  IC50: > 10000 nM

## MAAEMHSFCAFKADTGPCRADIKRFFFNIFTRQCEEFRYGGCMGNQNRFESLEECKKMCTRDSASSASGDFD [MBP-1G9]
Plasmin
  IC50: ~100 nM
MTSP-1
  IC50: ≥ 1000 nM
ET1 [2]; [5]
  IC50: 646 nM
ET1 [2]; [6]
  IC50: 20.7 nM

## MAAEMHSFCAFKADPGQCRAYYRRFFFNIFTRQCEEFVYGGCMGNQNRFESLEECKKMCTRDSASSASGDFD [MBP-1G2]
TnIV
  IC50: ~600 nM
Plasmin
  IC50: ~40 nM
fXa
  IC50: ~100 nM
ET1 [2]; [5]
  IC50: 310 nM
ET1 [2]; [6]
  IC50: 8.2 nM

## AGQMRRKCISRDIPCVTHGTY [DX-1628]
ET1 [1]; [4]
  Ki: 10.2 nM

## GSWDSCNELRCIWDAP [DX-1084]
ET1 [1]
  IC50: > 10000 nM

## GSSFFCVGPECWTSAP [DX-1082]
ET1 [1]
  IC50: > 10000 nM

## AGKMRCISRDIPCTVKSGGTY [DX-1632]
ET1 [1]; [4]
  Ki: 15.8 nM

## AGHGECMVASHMCIKHGTY [DX-1134]
ET1 [1]
  IC50: > 10000 nM

## GSSMFCDAYYCTDHAP [DX-1083]
ET1 [1]
  IC50: > 10000 nM

## AQPHWVPNQPVRDRWQSFPKWLGG [DX-1077]
ET1 [1]
  IC50: > 10000 nM

## GSVGLCYQNFCKKIAP [DX-1100]
ET1 [1]
  IC50: > 10000 nM

## AGRETWVCKGYYPDCGYPGT [DX-1641]
ET1 [1]; [4]
  Ki: 34.6 nM

## AGFQKCKGLYPDCYVPGT [DX-1054]
ET1 [1]
  IC50: 10000 nM

## MAAEMHSFCAFKADPGPCRAIMTRFFFNIFTRQCEEFRYGGCLGNQNRFESLEECKKMCTRDSASSASGDFD [MBP-1G11]
TnIV
  IC50: ≥ 1000 nM
Plasmin
  IC50: ~50 nM
fXa
  IC50: ≥ 1000 nM
ET1 [2]; [5]
  IC50: 120 nM
ET1 [2]; [6]
  IC50: 2.7 nM

## AGGWRYPCKGFYPDCGYPGT [DX-1638]
ET1 [1]; [4]
  Ki: 126 nM

## AGKHICRGFYPDCVWQTWGT [DX-1645]
ET1 [1]; [4]
  Ki: 15.6 nM

## AGLRKCGFWGFPCKGMGT [DX-1040]
ET1 [1]
  IC50: > 10000 nM

## AGSGRRFCISRDIPCVTHGT [DX-1630]
ET1 [1]; [4]
  Ki: 128 nM

## AGRAGWRCKGYYPDCGYPGT [DX-1642]
ET1 [1]; [4]
  Ki: 11.6 nM

## AGKHICRGFYPDCVWQTFGT [DX-1649]
ET1 [1]; [4]
  Ki: 22.1 nM

## GDSPHCGSHVTVNEKSCMFYDP [DX-1080]
ET1 [1]
  IC50: > 10000 nM

## MAAEMHSFCAFKADRGPCRADFHRFFFNIFTRQCEEFHYGGCGGNQNRFESLEECKKMCTRDSASSASGDFD [MBP-1A10]
TnIV
  IC50: ~80 nM
Plasmin
  IC50: ~100 nM
MTSP-1
  IC50: ≥ 1000 nM
ET1 [2]; [5]
  IC50: 88 nM
ET1 [2]; [6]
  IC50: 3.1 nM

## AGGFKCISEEEDCKLMGT [DX-1073]
ET1 [1]
  IC50: > 10000 nM

## AGSSGWRCKGYYPDCGYPGT [DX-1644]
ET1 [1]; [4]
  Ki: 8.6 nM

## AGQVRRYCISRDIPCVTHGT [DX-1626]
ET1 [1]; [4]
  Ki: 16.6 nM

## GDYLQCRWNAWENRTLCTWRDP [DX-1042]
ET1 [1]
  IC50: > 10000 nM

## GDDNECEPDADLSEYECVHRDP [DX-1078]
ET1 [1]
  IC50: > 10000 nM

## AGNYMCKGYWPDCKMTGT [DX-1133]
ET1 [1]; [7]
  Ki: 256 nM
ET1 [1]
  IC50: 350 nM

## MAAEMHSFCAFKADQGPCRASVHRFFFNIFTRQCEEFFYGGCLGNQNRFESLEECKKMCTRDSASSASGDFD [MBP-1F8]
Plasmin
  IC50: ~60 nM
ET1 [2]; [5]
  IC50: > 400 nM
ET1 [2]; [6]
  IC50: 21.4 nM

## GSQHICHPGGCEKPAP [DX-1038]
ET1 [1]
  IC50: > 10000 nM

## AGNTGWRCKGYYPDCGYPGT [DX-1639]
ET1 [1]; [4]
  Ki: 28 nM
